# Values of other authors, collected in patent publication US11926624B2, “Synthesis of coelenterazine synthesis intermediate” (INTERNATIONAL PAPER COMPANY, priority 2018, dated 2024).
# Molecular target: T1, Renilla Luciferase (Renilla reniformis, UniProt P27652)
# T1 sequence (P27652 1-311): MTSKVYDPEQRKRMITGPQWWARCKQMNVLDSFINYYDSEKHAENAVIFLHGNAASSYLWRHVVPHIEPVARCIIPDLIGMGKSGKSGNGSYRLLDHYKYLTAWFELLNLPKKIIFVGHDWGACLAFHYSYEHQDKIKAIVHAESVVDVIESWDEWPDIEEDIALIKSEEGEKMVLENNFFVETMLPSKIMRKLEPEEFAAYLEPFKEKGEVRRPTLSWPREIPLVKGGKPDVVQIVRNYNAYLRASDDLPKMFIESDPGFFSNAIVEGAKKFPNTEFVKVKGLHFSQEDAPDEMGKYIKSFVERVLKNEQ
# Conditions: with Renilla Luciferase; luminescent intensity as % initial intensity
smiles,measurement,value
O=c1c(Cc2ccc(O)cc2)nc2c(CC3CCCC3)[nH]c(-c3ccc(O)cc3)cn1-2 [coelenterazine cp],Initial Intensity,135%
